Patent US10047084B2, “Imidazolone derivatives, pharmaceutical compositions and uses thereof” (BEIJING FORELANDPHARMA CO. LTD., priority 2013, dated 2018)

Experiments:
PC-3 = assay: CTG cell survival assay, PC-3; type: cell-based; conditions: Homo sapiens, PC-3 cells
From the text: (§1) 2. CTG Cell Survival Assay:
(§2) ATP is necessarily produced during the metabolic activities of viable cells, and there is a linear relationship between the content of ATP and the number of viable cells. Cell viability assay by CTG chemiluminescence is a general method for detecting the number of viable cells in the culture cells based on this principle. The addition of the CellTiter-Glo (CTG) reagent may induce cell lysis and produce chemiluminescent signals directly proportional to the amount of ATP in the well-plate, and thereby the cell proliferation activity in the well-plate can be measured by the reading values from the chemiluminescence.
(§3) 2.1 Experimental Materials and Instruments: […]
(§4) 2.2 Experimental Instruments: Carbon Dioxide Incubator, SANYO-MCO-20AIC, Biosafe Cabinet: BSC-1360-LIIA2, Table-Top High-Speed Refrigerated Centrifuge: SorvallST 16R, Microplate Rapid Oscillator: QB-9001, M3 Reader: SpectraMax M3, Microscope: OLYMPUS-CKX41/CKX31. […]
(§5) 2.4 Experimental Procedure: • 1.4.1 Cell Thawing: Cryogenic vials were removed from the liquid nitrogen container, directly immersed in a water bath at 37° C., and shaked from time to time to thaw. […] The solution was transferred to a centrifuge tube, centrifuged for 5 min at 1000 rpm, and counted. […]

SK-BR3/BT474 = assay: CTG cell survival assay, SK-BR3/BT474; type: cell-based; conditions: SK-BR3/BT474 cells
From the text: as §1, §2, §3, §4, §5

Structure (SMILES): Cn1cc(-c2ccc(-c3ccc4ncc5c(c4c3)n(C3CCN(Cc4ccccc4)C3)c(=O)n5C)cn2)cn1 (stereo not shown) [Example 12, 1-(1-benzylpyrrolidin-3-yl)-3-methyl-8-(6-(1-methyl-1H-pyrazol-4-yl)pyridin-3-yl)-1H-imidazo[4,5-c]quinolin-2(3H)-one]
- EC50 (PC-3): < 500 nM
- EC50 (SK-BR3/BT474): < 1000 nM

Structure (SMILES): CN1CCC(n2c(=O)n(C)c3cnc4ccc(-c5ccc(-c6cnn(C)c6)nc5)cc4c32)C1 (stereo not shown) [Example 9, 3-methyl-8-(6-(1-methyl-1H-pyrazol-4-yl)pyridin-3-yl)-1-(1-methylpyrrolidin-3-yl)-1H-imidazo[4,5-c]quinolin-2(3H)-one]
- EC50 (PC-3): < 100 nM
- EC50 (SK-BR3/BT474): < 1000 nM
